Measurements reported in PubChem BioAssay AID1362 (SRMLSC, 2008).
The list shows a part of the results, in another mix than the full data. Calls of active or inactive are those of the source. Cut-off read from the data, not from the text of the source: active = inhibition above about 58%; inactive = the rest, inconclusive results apart; tested in S. cerevisiae.

Assay: growth inhibition of WT strain, primary screen, mitochondrial fusion inhibitor project, WT and mutant strains, chemical genetic (AID 1362)
Conditions: mitochondrial fusion phenotypic screen, at 10 µM, active compounds read high

Row | Structure (SMILES) | inhibition
1 | CC(=O)NC(SC(=S)N(CC(C)C)CC(C)C)C(Cl)(Cl)Cl (configuration not stated) | active: 68.1%
2 | CCC(C)N(CC(C)C)C(=S)SC(NC(C)=O)C(Cl)(Cl)Cl (configuration not stated) | active: 67.7%
